What was measured:
[1] = test system: SaOS-2 cells; experiment: MTT cell viability assay on SaOS-2; conditions: SaOS-2, MTT, 48 h treatment, 25 μM, control = 100%; mean ± SD
[2] = molecular target: recombinant human Src (Homo sapiens, UniProt P12931); experiment: cell-free Src enzymatic assay; format: biochemical; conditions: read-out: Ki toward recombinant human Src; calculated from ID50; triplicate, mean values

Protein sequences, listed by entry. Tags and fused reporters are not part of them.
UniProt P12931, whole entry: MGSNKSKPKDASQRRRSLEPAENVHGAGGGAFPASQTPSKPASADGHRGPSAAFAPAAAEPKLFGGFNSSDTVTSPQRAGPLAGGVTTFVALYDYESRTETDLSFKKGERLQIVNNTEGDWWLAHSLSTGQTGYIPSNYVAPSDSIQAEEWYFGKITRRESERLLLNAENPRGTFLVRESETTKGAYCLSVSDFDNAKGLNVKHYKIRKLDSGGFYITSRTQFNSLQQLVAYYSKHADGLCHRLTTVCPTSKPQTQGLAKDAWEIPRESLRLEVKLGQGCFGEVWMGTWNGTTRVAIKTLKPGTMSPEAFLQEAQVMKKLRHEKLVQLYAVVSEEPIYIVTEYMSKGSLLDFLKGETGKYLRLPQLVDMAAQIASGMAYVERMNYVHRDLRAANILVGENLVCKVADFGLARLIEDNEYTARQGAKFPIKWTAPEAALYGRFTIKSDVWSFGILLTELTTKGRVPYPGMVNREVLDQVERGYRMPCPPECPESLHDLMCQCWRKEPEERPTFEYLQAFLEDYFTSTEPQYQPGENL

## CCCCNc1nc(SC)nc2c1cnn2CC(Cl)c1ccc(Cl)cc1 (stereo not drawn)
[1]
  CV (%) after 48 h (cellular viability with respect to control): 93.6 ± 3.1%

## CCCCNc1nc(SC)nc2c1cnn2CC(Cl)c1ccc(F)cc1 (stereo not drawn)
[1]
  CV (%) after 48 h (cellular viability with respect to control): 59.1 ± 1.9%

## ClC(Cn1ncc2c(NCc3ccccc3)nc(SC3CCCC3)nc21)c1ccccc1 (stereo not drawn)
[2]
  Ki: 1200 nM

From patent publication US8466164B2
